How the values were obtained:
[1] = biological target: T1, fibrinogen (Homo sapiens, UniProt P02675+P02679); assay: Mixtures of peptide conjugate and peptide dendrimer copolymerising with fibrinogen, clotting time; assay type: biochemical; details: conjugate 2 mg/ml mixed with Peptide Dendrimer No. 3 or 4 at 0.025-0.5 mg/ml; FIG. 6
T1 sequence (P02679 27-433 limits assumed): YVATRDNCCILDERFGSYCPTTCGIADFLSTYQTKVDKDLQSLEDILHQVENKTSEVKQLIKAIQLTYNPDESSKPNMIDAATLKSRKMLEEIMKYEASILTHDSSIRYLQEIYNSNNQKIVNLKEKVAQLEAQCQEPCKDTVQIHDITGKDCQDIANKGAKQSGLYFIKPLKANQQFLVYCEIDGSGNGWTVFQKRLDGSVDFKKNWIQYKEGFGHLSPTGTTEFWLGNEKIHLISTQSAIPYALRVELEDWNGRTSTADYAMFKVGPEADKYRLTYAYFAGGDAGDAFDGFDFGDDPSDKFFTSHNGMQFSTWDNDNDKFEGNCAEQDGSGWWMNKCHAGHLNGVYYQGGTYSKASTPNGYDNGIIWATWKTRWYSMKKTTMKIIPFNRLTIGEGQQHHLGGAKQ
T1 sequence (P02675 31-491): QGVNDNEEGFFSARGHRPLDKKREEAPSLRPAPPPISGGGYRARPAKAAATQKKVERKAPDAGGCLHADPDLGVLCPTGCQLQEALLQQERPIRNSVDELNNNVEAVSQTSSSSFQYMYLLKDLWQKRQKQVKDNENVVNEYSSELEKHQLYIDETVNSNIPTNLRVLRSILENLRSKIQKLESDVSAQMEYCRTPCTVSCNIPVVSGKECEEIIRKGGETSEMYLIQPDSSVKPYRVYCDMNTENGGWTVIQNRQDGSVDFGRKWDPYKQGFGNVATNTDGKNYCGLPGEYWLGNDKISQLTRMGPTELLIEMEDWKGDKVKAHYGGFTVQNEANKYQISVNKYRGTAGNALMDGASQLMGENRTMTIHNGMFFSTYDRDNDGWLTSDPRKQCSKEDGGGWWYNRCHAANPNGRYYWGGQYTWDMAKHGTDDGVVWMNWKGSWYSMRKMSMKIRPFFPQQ
T1 sequence (P02671 20-629 partner limits assumed): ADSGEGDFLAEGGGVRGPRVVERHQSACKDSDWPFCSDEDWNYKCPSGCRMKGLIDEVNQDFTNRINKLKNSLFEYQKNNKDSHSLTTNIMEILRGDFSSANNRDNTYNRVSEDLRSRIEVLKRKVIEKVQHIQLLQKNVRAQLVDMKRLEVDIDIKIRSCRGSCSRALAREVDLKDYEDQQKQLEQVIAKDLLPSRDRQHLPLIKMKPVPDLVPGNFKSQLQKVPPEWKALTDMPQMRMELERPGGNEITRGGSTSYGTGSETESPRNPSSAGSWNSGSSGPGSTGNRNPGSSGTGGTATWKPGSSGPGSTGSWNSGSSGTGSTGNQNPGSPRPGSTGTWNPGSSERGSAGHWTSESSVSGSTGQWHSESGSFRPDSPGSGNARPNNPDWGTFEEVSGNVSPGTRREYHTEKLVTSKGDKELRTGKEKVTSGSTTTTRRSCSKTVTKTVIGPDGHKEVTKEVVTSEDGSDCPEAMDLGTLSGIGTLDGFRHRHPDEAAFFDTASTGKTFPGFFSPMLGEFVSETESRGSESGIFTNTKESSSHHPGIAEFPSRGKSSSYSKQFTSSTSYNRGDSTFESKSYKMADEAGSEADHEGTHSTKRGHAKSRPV
Method: (§1) The ability of Peptide Dendrimer No. 12 to polymerise fibrinogen was assessed. 30 μl of dendrimer in solution, at concentration ranging from 0.005-2 mg/ml, was added to 100 μl purified human fibrinogen at 3 mg/ml (the level of fibrinogen found in the blood). Polymerisation of fibrinogen was analysed using a Sigma Amelung KC4 Delta coagulation analyser.
Peptide Conjugate No. 1 or 2 (2 mg/ml) was mixed with Peptide Dendrimer No. 3 or 4, and fibrinogen, and the ability of the mixtures to copolymerise with fibrinogen was assessed using the same method described in Example 2, for a concentration of each dendrimer ranging from 0.025-0.5 mg/ml.

[2] = biological target: T2, purified human fibrinogen (Homo sapiens, UniProt P02675+P02679); assay: Copolymerisation of peptide dendrimer with purified fibrinogen, clotting time on KC4 Delta coagulation analyser; assay type: biochemical
T2 sequence (P02679 27-433 limits assumed): T1 sequence (P02679 27-433 limits assumed)
T2 sequence (P02675 31-491): T1 sequence (P02675 31-491)
T2 sequence (P02671 20-629 partner limits assumed): T1 sequence (P02671 20-629 partner limits assumed)
Method: as §1
The ability of Peptide Dendrimer Nos. 4, 5, 10, 11, and 12 to copolymerise with fibrinogen was assessed using the same method described in Example 2. The concentration of each dendrimer was varied from 0.005-0.5 mg/ml.
The ability of the dendrimers to copolymerise with fibrinogen was assessed using the same method described in Example 2, for a concentration of each dendrimer ranging from 0.005-0.5 mg/ml.

Row | Substance | activity of mixtures in copolymerising with fibrinogen (clotting times) [1] | ability to copolymerise with fibrinogen ([2]; at higher fibrinogen concentrations (data not shown)) | ability to copolymerise with fibrinogen (clotting time) ([2]; dendrimer 0.005-0.5 mg/ml, fibrinogen 3 mg/ml, FIG. 2 and 3)
1 | Peptide Conjugate No. 1: two GPRP fibrinogen-binding peptides attached by linkers to a lysine residue, second by its amino-terminal end with carboxy-terminal amide | not active |  | 
2 | Peptide Conjugate No. 2: GHRPY peptide and reverse sequence YPRHG (amide) attached by linkers to a lysine residue | synergistic and increased activity |  | 
3 | Peptide Dendrimer No. 3: three-branch dendrimer on a single lysine, peptides of sequence GPRPG; one attached by its amino-terminal end, carboxy-terminal amide |  | able to copolymerise with fibrinogen | reduced the ability of the dendrimer to copolymerise with fibrinogen

— patent publication US10994047B2, “Peptide dendrimers comprising fibrinogen-binding peptides” (HAEMOSTATIX LIMITED, priority 2014, dated 2021)
